This is a selection; strong and weak results do not stand in their true shares. Active and inactive are the calls of the source. Cut-off read from the data, not from the text of the source: active = activation mostly above about 9.7% (no sharp cut-off); inconclusive = no clear call, values can overlap the other calls; inactive = mostly below about 3.7%.
assay: induces V. cholerae light production without autoinducers, primary screen, BH1578 luxS cqsA deficient, single point (AID 588436); settings: V. cholerae BH1578 lux reporter, luminescence, 6 h; at 18.7 µM; hits give high values

| SMILES | activation |
| --- | --- |
| CCC(=O)N(c1ccccc1)C1(COC)CCN(CCn2nnn(CC)c2=O)CC1 | inactive: -0.488% |
| CCC(=O)N(c1ccccc1)C1(COC)CCN(CCc2cccs2)CC1 | inactive: -0.156% |
